Experimental findings from PubChem BioAssay AID802 (Columbia University Molecular Screening Center, 2007) are described below.

Only a part is listed here, and it is no random draw. Calls of active or inactive are those of the source.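 Rule for the calls: active = inhibition above the batch mean plus 3 SD, with images confirmed as a hit by eye (cut at about 37% in these data); inconclusive = inhibition above that limit but hit not confirmed in images; inactive = inhibition not above that limit.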

This experiment can be described thus: blockers of endothelial VCAM-1 upregulation by TNFa – imaging, HUVEC, TNFa stimulus, immunofluorescence, primary screen (AID 802).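 Note: 0% = TNF-stimulated DMSO wells and 100% = unstimulated control wells.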 Particulars: HUVEC TNFa-induced VCAM-1 immunofluorescence, high-content imaging; at 2 µM; stronger effect = higher value.
In the case of `O=C(NCC1(N2CCOCC2)CCCCC1)c1cc2ccccc2o1`, the inhibition (commonly the relative decrease from the control value, in per cent) is inactive: -10.2%.
Next, `O=C(OC1CN2CCC1CC2)C1c2ccccc2Oc2ccccc21` (stereo not given): inactive: -0.7%.
In the case of `COc1ccc(NC2CCN(CCc3ccccc3)CC2)c(OC)c1` it was inactive: 17.3%.
Regarding `N#CC1(Nc2ccccc2)CCN(CCc2ccccc2)CC1`, the inhibition was inactive: -11.5%.
In the case of `O=C(NCC1(N2CCOCC2)CCCCC1)c1cc(=O)[nH]c2ccccc12` it was inactive: -0.8%; in that of `CN1CCC(Nc2cccc(F)c2)CC1`, inactive: 9.5%; in that of `N/C(=N\O)c1c(N)no[n+]1[O-]`, inactive: -5.3%.
Next, `c1ccc(CN2CCC(Nc3ccccc3)CC2)cc1`: inactive: -8.6%; `CCOc1ncccc1C(=O)NCC1(N2CCOCC2)CCCCC1`: inactive: 12.6%.
In the case of `CCC(CO)(C(=O)OC1CN2CCC1CC2)c1ccccc1` (stereo not given) it was inactive: -9.2%.
